Yeast mating assay 1: variants of the scFv Ab-14

Reference: Engelhart et al. 2022, doi:10.1038/s41597-022-01779-4. File: FLAb, binding data.

All variants were tested on one target, the spike HR2 peptide PDVDLGDISGINAS (SARS-CoV-2).

Parent: Ab-14, a human scFv built as VH, a 15-residue (Gly4Ser)3 linker, VL. Only the CDRs of the light chain vary.
VH: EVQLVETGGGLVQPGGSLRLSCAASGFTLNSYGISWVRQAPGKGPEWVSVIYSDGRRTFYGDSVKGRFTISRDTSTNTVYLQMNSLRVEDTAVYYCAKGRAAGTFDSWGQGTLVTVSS
VL: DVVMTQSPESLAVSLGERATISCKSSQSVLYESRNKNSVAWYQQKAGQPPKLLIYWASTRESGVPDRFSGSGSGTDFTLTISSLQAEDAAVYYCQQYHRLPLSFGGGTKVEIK

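Phage display of a naive human antibody library on the peptide gave the parent. The library (AAYL50) carries one to three amino acid substitutions per variant, with no insertions or deletions. Affinity was read by AlphaSeq, a pooled yeast mating assay with surface-displayed partners. The frequency of each diploid, read from paired DNA barcodes, reflects how well the two displayed proteins bind. Each replicate has its own calibration line, from reference interactions of the BCL2 family. Each pool was mated in three replicate cultures.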

Sequences are complete VL domains. The Kd shown is the geometric mean over detected replicates; a lower Kd is a better binder. "no signal" means that the variant was in the library but no mating with the target was seen in any replicate; the authors take this as a sign of poor binding, and no number exists. As a blank, each scFv also met three strains without target: over library AAYL50, 18% of these pairings were detected, typically at 15 µM and seldom below 970 nM. For each scFv, signals with the empty controls are counted beside the result.

VL,Kd,detected,control signals
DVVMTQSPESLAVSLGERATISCKSSQHVLYESRNKNSVSWYQQKAGQPPKLLIYWFSTRESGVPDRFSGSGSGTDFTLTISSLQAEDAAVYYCQQYHRLPLSFGGGTKVEIK,10 µM,2 of 3,5 of 9
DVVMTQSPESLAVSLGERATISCKSSQSVLYVSRNYNSCAWYQQKAGQPPKLLIYWASTRESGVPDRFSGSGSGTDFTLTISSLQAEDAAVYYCQQYHRLPLSFGGGTKVEIK,10 µM,1 of 3,1 of 9
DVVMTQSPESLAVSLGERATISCKSSQSVLYESTNKNSVPWYQQKAGQPPKLLIYWASTRESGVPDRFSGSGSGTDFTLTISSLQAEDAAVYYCQQDHRLPLSFGGGTKVEIK,no signal,0 of 3,0 of 9
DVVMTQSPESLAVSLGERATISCKSSQSVLYESRLKNSVAWYQQKAGQPPKLLIYWASTRESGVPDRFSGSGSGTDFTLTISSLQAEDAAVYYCQQYHRLPLHFGGGTKVEIK,no signal,0 of 3,0 of 9
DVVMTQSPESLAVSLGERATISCKSSQGVLYESRNKNSVAWYQQKAGQPPKLLIYWALTRESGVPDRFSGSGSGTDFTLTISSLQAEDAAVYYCQQYHRLPLHFGGGTKVEIK,no signal,0 of 3,0 of 9
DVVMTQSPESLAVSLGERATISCKSSQSVLWESRNKNSVAWYQQKAGQPPKLLIYWASTRESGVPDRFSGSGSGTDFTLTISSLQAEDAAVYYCQQYHRLFLMFGGGTKVEIK,30 nM,3 of 3,0 of 9
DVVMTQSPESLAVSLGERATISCKSSLSELYESRNKNMVAWYQQKAGQPPKLLIYWASTRESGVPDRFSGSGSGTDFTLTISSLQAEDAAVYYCQQYHRLPLSFGGGTKVEIK,110 nM,3 of 3,3 of 9
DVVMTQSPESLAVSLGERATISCKSSQSVKDESRNKNSVAWYQQKAGQPPKLLIYWASTRESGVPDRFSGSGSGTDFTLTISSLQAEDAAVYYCQQYHWLPLSFGGGTKVEIK,39 nM,3 of 3,0 of 9
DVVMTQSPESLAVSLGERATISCKSSQSVLYESRNTNLVAWYQQKAGQPPKLLIYWASTRESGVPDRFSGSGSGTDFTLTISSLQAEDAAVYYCQQYHRLPLSFGGGTKVEIK,47 µM,3 of 3,2 of 9

Further variants, results first:

Kd,detected,control signals,VL
55 nM,3 of 3,2 of 9,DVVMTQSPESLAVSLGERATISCISSQSVLYESRNKNSVAWYQQKAGQPPKLLIYWASTRESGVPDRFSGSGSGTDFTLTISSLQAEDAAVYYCQQYRRLPLSFGGGTKVEIK
280 nM,3 of 3,3 of 9,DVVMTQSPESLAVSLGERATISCKSVQSVLYYGRNKNSVAWYQQKAGQPPKLLIYWASTRESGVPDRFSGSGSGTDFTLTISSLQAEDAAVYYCQQYHRLPLSFGGGTKVEIK
1.2 µM,1 of 3,2 of 9,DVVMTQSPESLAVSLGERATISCKSSQSVLYESRNKNSVAWYQQKAGQPPKLLIYWASTRESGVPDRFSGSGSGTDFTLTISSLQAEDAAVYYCQQYDNLALSFGGGTKVEIK
24 nM,3 of 3,3 of 9,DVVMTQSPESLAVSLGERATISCKSDQSVLYESRNKNSVAWYQQKAGQPPKLLIYWASTREMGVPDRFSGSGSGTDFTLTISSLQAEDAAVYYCQQYHLLPLSFGGGTKVEIK
2.8 µM,1 of 3,1 of 9,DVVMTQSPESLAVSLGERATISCKSWQSVLYESRNKNSVAWYQQKAGQPPKLLIYWAGTRESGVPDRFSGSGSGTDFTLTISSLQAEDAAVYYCNQYHRLPLSFGGGTKVEIK
3.3 nM,3 of 3,0 of 9,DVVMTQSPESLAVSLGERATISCKSSQSSLYESRSKNSVAWYQQKAGQPPKLLIYWASTRISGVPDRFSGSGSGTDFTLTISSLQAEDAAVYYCQQYHRLPLSFGGGTKVEIK
280 µM,3 of 3,5 of 9,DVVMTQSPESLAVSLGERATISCKSSNSVLYESRNKTRVAWYQQKAGQPPKLLIYWASTRESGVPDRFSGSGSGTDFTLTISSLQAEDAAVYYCQQYHRLPLSFGGGTKVEIK
86 µM,1 of 3,5 of 9,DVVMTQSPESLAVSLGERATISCKSSQSVLYMSRNKNKVAWYQQKAGQPPKLLIYWASTRCSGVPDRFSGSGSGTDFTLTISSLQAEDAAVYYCQQYHRLPLSFGGGTKVEIK
no signal,0 of 3,0 of 9,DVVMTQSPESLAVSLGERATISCKSSQSVLYESRNKRSVAWYQQKAGQPPKLLIYWWSTREEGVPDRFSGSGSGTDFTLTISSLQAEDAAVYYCQQYHRLPLSFGGGTKVEIK
22 nM,3 of 3,2 of 9,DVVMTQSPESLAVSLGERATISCKSSQSVLYESRNKNSVAWYQQKAGQPPKLLIYWASNRESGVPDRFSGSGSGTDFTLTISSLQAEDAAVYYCMQYHRLPLAFGGGTKVEIK